These results are taken from PubChem BioAssay AID2451 (National Center for Advancing Translational Sciences (NCATS), 2010).

Amino acid sequences for entries named in this document (tags omitted). A change or cut given only in a name is not applied to a line headed by its entry.
UniProt A8B2U2: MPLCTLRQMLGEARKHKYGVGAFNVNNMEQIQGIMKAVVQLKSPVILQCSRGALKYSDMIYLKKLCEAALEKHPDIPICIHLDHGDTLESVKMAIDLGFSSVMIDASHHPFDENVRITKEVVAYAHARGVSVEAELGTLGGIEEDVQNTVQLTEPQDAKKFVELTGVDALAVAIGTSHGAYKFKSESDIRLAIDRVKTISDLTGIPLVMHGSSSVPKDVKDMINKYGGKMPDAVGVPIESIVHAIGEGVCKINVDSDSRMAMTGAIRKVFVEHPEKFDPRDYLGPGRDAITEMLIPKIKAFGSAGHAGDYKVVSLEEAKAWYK

Only a part is listed here, and it is no random draw. Results filed as inconclusive are left out. Activity calls are given as the source filed them. Calls come from the whole dose curve; as a rule, active = well fitted inhibition curve with a large enough effect; inconclusive = small, poorly fitted or top-dose-only effect, or effect the other way; inactive = flat fitted curve, though single readings scatter.
Potency is the fitted concentration of half-maximal effect.

This test has as its target Fructose-bisphosphate aldolase (Giardia intestinalis (strain ATCC 50803 / WB clone C6)) (UniProt A8B2U2). As to the kind of experiment: qHTS Assay for Inhibitors of Fructose-1,6-bisphosphate Aldolase from Giardia Lamblia. Note: nearly all actives have a fitted effect of over 55% in size. Conditions: purified Giardia FBPA. An excerpt: Assay Provider: Osnat Herzberg, University of Maryland
The objective of this project is to obtain compounds that inhibit Giardia lamblia growth. G. lamblia is a human pathogen which afflicts impoverished nations; it is the most common cause of outbreaks of diarrhea in the United States. During the course of our study of potential drug targets in Giardia, we have identified the Class II (Zn2+ functions in electrophilic catalysis) fructose-1,6-bisphosphate aldolase (FBPA) as an excellent candidate for drug targeting. FBPA is a key glycolytic pathway enzyme, essential for G. lamblia survival. The human FBPA belongs to the Class I aldolases, which have a different substrate binding site structure and a radically different catalytic mechanism (employing a lysine-Schiff base intermediate). […]
A glyceraldehyde-3-phosphate dehydrogenase/triose phosphate isomerase/NAD/arsenate coupled assay was adapted to the 1536-well HTP format for use in the primary screen. This was done by coupling it to a diaphorase/resazurin/resorufin reaction that can be monitored by fluorescence (excitation, 544 nm; emission, 590 nm). Compounds identified in this screen will be further evaluated by coupling the glycerol-3-phosphate/triose phosphate isomerase/NADH assay to a phenazine methosulfate/tetranitroblue tetrazolium color reaction. […]
6,Detector,525 nm/598 nm (Fluorescence),ViewLux Fluorescence Read (Read 1) […]
On to `CC1(C)N([O-])c2cc([N+](=O)[O-])ccc2[N+]1=O`, for which the Potency was active: 14.1 µM.
